According to US9850293B2, “Targeting trastuzumab-resistant HER2+ breast cancer with a HER3-targeting nanoparticle” (priority 2014, dated 2017):

Key:
[1] = test system: human cardiosphere-derived cells (CDCs); assay: Human CDC viability; details: escalating concentrations, 48 hour exposure
Experimental: Control groups received saline or HerPBK10 at equivalent concentration to HerMn. Treatments began at ˜200 mm^3 average tumor volume. Tumor volumes were measured before (day 1), during (day 3), and after (days 8, 15, and 22) injections of reagents. N=8-10 tumors/group. *p<0.05 (one-way ANOVA). […] N=3 per conc, from 3 separate experiments.
To assess translatability, the viability of human cardiosphere-derived cells (CDCs) in the presence of HerGa and/or HerMn was examined.

[2] = T1 relaxation shortening in solution; format: physicochemical

Row | Substance | effect on CDC viability [1] | T1 (spin-lattice) relaxation shortening in solution [2]
1 | sulfonated gallium(III) corrole [S2Ga] | no detectable effect on CDC viability | –
2 | sulfonated manganese(III) corrole [S2Mn] | no detectable effect on CDC viability | significant T1 relaxation shortening
